Values of other authors, collected in US20070292421A1, “Method for treating preeclampsia” (priority 2005, published 2007).

Conditions: upper value (14.5) after a 2 mg/kg dose

## Pexelizumab: recombinant single-chain antibody fragment that binds human C5 and blocks generation of C5a (Alexion Pharmaceuticals)
  elimination half life: 7.0 to 14.5 h
